The source of these data is ChEMBL document CHEMBL1153300, “Identification and SAR of novel diaminopyrimidines. Part 2: The discovery of RO-51, a potent and selective, dual P2X(3)/P2X(2/3) antagonist for the treatment of pain” (Bioorg Med Chem Lett, 2009).

The target of the test is T1, P2X purinoceptor 3 (Rattus norvegicus, UniProt P49654).
T1 sequence (P49654 whole entry): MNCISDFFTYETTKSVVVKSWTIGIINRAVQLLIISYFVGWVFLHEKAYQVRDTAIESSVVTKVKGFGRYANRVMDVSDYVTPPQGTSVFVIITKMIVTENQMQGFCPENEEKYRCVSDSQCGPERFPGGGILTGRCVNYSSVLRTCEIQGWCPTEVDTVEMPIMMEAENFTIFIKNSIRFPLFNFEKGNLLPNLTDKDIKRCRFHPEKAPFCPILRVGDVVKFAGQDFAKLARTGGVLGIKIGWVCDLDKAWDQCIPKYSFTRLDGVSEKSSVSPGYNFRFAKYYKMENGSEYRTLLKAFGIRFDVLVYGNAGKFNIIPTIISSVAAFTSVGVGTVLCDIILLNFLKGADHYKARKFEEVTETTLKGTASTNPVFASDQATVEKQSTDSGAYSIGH
Put plainly: Antagonist activity at rat P2X3 receptor expressed in CHO cells by FLIPR. In kind it is functional, cell-based.

Molecules are shown by their SMILES.

`COc1cc(C(C)C)c(Oc2cnc(NCCO)nc2N)cc1I`: the pIC50 (cho) came to 8.
With `COc1cc(C(C)C)c(Oc2cnc(NC(CO)CO)nc2N)cc1I`, the IC50 is 2 nM.
Still for that read-out and setting: next, `COc1cc(C(C)C)c(Oc2cnc(NC(C)(C)CO)nc2N)cc1I`: 100 nM.

The pIC50 is the negative decadic logarithm of the IC50, by convention in mol/L. Higher therefore signals a low IC50. One may read the IC50 as the concentration at which inhibition is half-maximal. A high value points to lower potency.
